Earlier results on one compound are cited in US8877755B2, “Dopamine-agonist combination therapy for improving sleep quality” (priority 2004, dated 2014).

Structures can show the parent of a compound that is named as a salt.

For the series the following is noted: mouse.

`CN1CCc2cccc3c2[C@H]1Cc1ccc(O)c(O)c1-3` [apomorphine HCl]: the LD50 is reported as > 50 mg/kg.

By LD50 is commonly meant the dose at which mortality reaches 50%.
